## Binding of CDR-mutated scFvs to a peptide of the spike HR2 region

Reference: Li et al. 2023, doi:10.1038/s41467-023-39022-2. File: FLAb, binding data.

Binding partner: SARS-CoV-2 spike HR2 peptide, sequence PDVDLGDISGINAS.

Parent: Ab-14, a human scFv built as VH, a 15-residue (Gly4Ser)3 linker, VL. Only the CDRs of the light chain vary.
VH: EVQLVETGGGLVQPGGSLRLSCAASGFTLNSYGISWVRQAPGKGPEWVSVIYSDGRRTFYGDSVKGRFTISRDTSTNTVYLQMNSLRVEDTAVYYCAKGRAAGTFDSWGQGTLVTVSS
VL: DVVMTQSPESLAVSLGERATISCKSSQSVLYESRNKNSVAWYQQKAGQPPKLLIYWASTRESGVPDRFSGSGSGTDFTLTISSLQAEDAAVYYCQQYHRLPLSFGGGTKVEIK

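The parent was found by panning a naive human phage display library on the peptide. Designed CDR sequences, proposed from the first random library and measured here. Their group label is 14L_En_HC (En: ensemble of fine-tuned language models; HC: hill climbing; a sequence that several methods proposed may carry one label only). Affinity was read by AlphaSeq, a pooled yeast mating assay with surface-displayed partners. Pairs that bind mate more often; barcode pairs of the diploids are counted by sequencing. Each replicate has its own calibration line, from reference interactions of the BCL2 family. There are six technical replicates.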

Each variant is given by its three light chain CDRs, as the data file delimits them; those of the parent are KSSQSVLYESRNKNSVA, WASTRES, QQYHRLPLS. Affinities are written as log10 Kd with Kd in nM; a lower number is a better binder. The mean shown is taken over the replicates in which the pair was detected. An entry "ND" has no value in the source: the pair was not observed among the diploids in that replicate. This suggests poor binding but is not conclusive. The range of this assay differs from that of the first round, and the authors advise against merging the two.

| CDR-L1 | CDR-L2 | CDR-L3 | replicates, log10 nM | log10 Kd (nM), mean | signal with controls |
|---|---|---|---|---|---|
| MISQLFMYGTRNYNSIA | QAETREK | QQYDRLPLE | 1.16 / 0.96 / 0.68 / 0.61 / 0.93 / 1.23 | 0.93 | 0/18 |
| HLGGLMTWESKAKNSVA | QSNTRAE | QQYHRLPLS | 0.15 / 0.14 / 0.13 / 0.25 / 0.23 / 0.57 | 0.25 | 2/18 (3.37) |
| TFSQTVMYESTMRNNVA | QTSTRES | QQYDRLPLS | 0.38 / 0.34 / 0.05 / 0.47 / 0.18 / 0.35 | 0.30 | 2/18 (2.49) |
| ALSQVMDMTSRNKNSVA | DLSTREN | QQYHRLPLS | 0.16 / -0.12 / -0.10 / -0.10 / 0.05 / 0.11 | 0.00 | 1/18 (2.82) |
| MLSDIVKMGSRNTNSVA | DNSTRGA | QQYDRLPLS | ND / 3.55 / 3.13 / ND / 2.92 / 2.58 | 3.05 | 2/18 (2.60) |
| KLPMATMVESVSKNNVA | ELTTRGS | QQYNRLPLS | 0.86 / 0.87 / 0.77 / 0.75 / 0.70 / 0.61 | 0.76 | 2/18 (3.01) |
| KISQLVNFLGKDKNSVA | QMSTRES | QQYDRLPLS | 0.50 / 0.76 / 0.60 / 0.92 / 0.93 / 0.48 | 0.70 | 1/18 (4.13) |
| KLYQMTLTEGYFKNSVA | QASTREN | QSYHRLPLS | 0.97 / 0.46 / 0.57 / 0.33 / 0.55 / 0.80 | 0.61 | 0/18 |
| KLRQSTHIESFNKNNVA | EMTTREE | QSYDRLPLS | 2.32 / ND / 2.36 / 2.01 / 1.37 / 2.29 | 2.07 | 0/18 |
| IISQSVLGGYHNSNSVA | QTSERGQ | QQYDRLPLS | 1.43 / 0.74 / 0.80 / 0.71 / 0.44 / 0.49 | 0.77 | 0/18 |
| TLGQVTMQLSRNKNSVA | DANTSED | QQYDRLPLS | 1.17 / 0.85 / 0.64 / 0.72 / 1.08 / 0.94 | 0.90 | 0/18 |
| KLTMMYQHTSKNTNNIA | ERSTREE | QQYHHLPLS | 0.50 / 0.20 / 0.26 / 0.10 / 0.16 / 0.49 | 0.28 | 1/18 (2.55) |
| KVGEMMAFLSSNRNSVA | DNSTRGS | QQYHRLPLS | 1.07 / 1.24 / 0.66 / 1.19 / 1.90 / 2.27 | 1.39 | 1/18 (3.11) |
| KISMLYNYESTAKNSIA | EMTTRES | QHYHRLPLS | 0.74 / 0.83 / 0.51 / 0.58 / 0.53 / 0.74 | 0.66 | 0/18 |
| QLLMATWQGTYNRNSVA | HAETRED | QSYHRLPLS | 1.77 / 2.21 / 1.76 / 2.56 / 1.49 / 1.74 | 1.92 | 0/18 |
| KIGHGLTTESYNRNSVA | QTETRVS | QHYHRLPLS | 3.14 / 2.62 / 2.18 / 2.36 / 1.41 / 2.08 | 2.30 | 2/18 (3.18) |
| IVSQSVMGESRNKNSVA | QTSERNY | QQYDRLPLS | 0.67 / 0.68 / 0.79 / 0.66 / 0.98 / 0.77 | 0.76 | 5/18 (2.65) |
| HLAQSVDLESVHKNSIA | DLMTRES | QQYHRLPLS | 1.73 / 1.25 / 0.60 / 1.50 / 1.23 / 0.84 | 1.19 | 0/18 |
| HLLQTVMWGQTRKNSVA | HAVTREN | QQYHRLPLS | 1.10 / 0.84 / 1.64 / 1.18 / 0.58 / 1.12 | 1.08 | 1/18 (3.04) |
| SLYDATTMESRNKNPIA | DVSTRPS | QQYHRLPLS | 0.03 / 0.06 / -0.06 / 0.29 / 0.12 / 0.11 | 0.09 | 2/18 (2.70) |
| HISQSYGMTSRNKNSVA | ENSTRED | QQYDRLPLS | 3.06 / 1.71 / 4.77 / 4.95 / 3.58 / 2.63 | 3.45 | 3/18 (2.42) |
| KISWNFLIESKNLNSVA | EMTTREY | QDYDRLPLS | ND / ND / ND / ND / ND / ND | ND | 0/18 |
| TISQSAQQESHIKNSVA | DLNVRGS | QQYDRLPLS | 0.93 / 0.90 / 0.58 / 0.84 / 0.78 / 1.27 | 0.88 | 0/18 |
| KISQMVNYESTHIQAVA | QMSTREE | QQYFRLPLS | ND / 0.48 / 0.70 / 0.14 / 0.66 / 2.65 | 0.93 | 0/18 |
| MLSDLVKQGSRNTNSVA | DNSTRGS | QQYDRLPLS | ND / 2.22 / 1.16 / 1.68 / ND / 2.08 | 1.79 | 0/18 |
| MISDLTMYGSRNKNSVA | DLSTRGQ | QQYHRLPLS | -0.06 / -0.10 / -0.26 / -0.27 / -0.44 / -0.22 | -0.23 | 0/18 |
| TISMSMNWLTRNKNSIA | EESTRED | QQYDRLPLM | 1.00 / 1.16 / 0.85 / 0.91 / 1.28 / 0.37 | 0.93 | 0/18 |
| KLSMSYRYESENKNSIA | ELVTRAS | QQYHRLPLS | 0.33 / 0.36 / 0.38 / 0.32 / 0.36 / 0.72 | 0.41 | 1/18 (2.37) |
| HLSQSTDLESVHKNSIA | DLMTREN | QQYHRLPLS | 0.17 / -0.12 / 0.05 / -0.27 / -0.08 / 0.16 | -0.01 | 2/18 (2.61) |
| HISDLIMVASRNKNSVA | DENARPD | QQYHRLPLS | 0.23 / -0.08 / 0.15 / 0.15 / 0.07 / -0.07 | 0.08 | 0/18 |
| KLLQEVQGRSQNRNSVA | HNSTRED | QQYDRLPLI | ND / ND / ND / ND / 2.44 / 2.07 | 2.26 | 0/18 |
| TISQSLLMQTSHKNSVA | GEETRYS | QQYARLPLS | -0.03 / 0.38 / 0.08 / 0.44 / 0.22 / 0.09 | 0.20 | 0/18 |
| MLGMTVMQGMYSRNSVA | QEETRAD | QQYHHLPLS | 1.78 / 1.14 / 0.56 / 1.02 / 0.46 / 0.93 | 0.98 | 1/18 (2.17) |
| KLGSATRFESSNKASIA | DNSTREA | QQYHRLPLS | 0.17 / 0.22 / 0.14 / -0.30 / 0.03 / 0.33 | 0.10 | 1/18 (2.58) |
| TLGDVTRMQSNKKNSIA | DMSNRAD | QQYHRLPLS | -0.07 / -0.34 / -0.07 / -0.37 / -0.30 / 0.30 | -0.14 | 0/18 |
| KIGQQVTYESTNKNAIA | QMTTREQ | QQYHRLPLS | 0.20 / -0.15 / 0.09 / 0.07 / -0.09 / 0.16 | 0.05 | 2/18 (3.36) |
| TISGSANYESTNKNSVA | ELTTRGS | QQYERLPLS | ND / ND / ND / 1.80 / ND / 2.21 | 2.00 | 2/18 (1.89) |
| TISQTFMMENQFKNSVA | QASTRES | QCYDRLPLS | ND / ND / 0.87 / 1.47 / 1.90 / ND | 1.42 | 1/18 (1.89) |
| NISQMFLMETKNVNNVA | QTNTRES | QDYHRLPLS | 0.06 / 0.08 / -0.19 / 0.04 / -0.13 / 0.11 | -0.01 | 0/18 |

Top 2 of the variants detected in all replicates, tightest first:

| CDR-L1 | CDR-L2 | CDR-L3 | replicates, log10 nM | log10 Kd (nM), mean | signal with controls |
|---|---|---|---|---|---|
| MISDLTMYGSRNKNSVA | DLSTRGQ | QQYHRLPLS | -0.06 / -0.10 / -0.26 / -0.27 / -0.44 / -0.22 | -0.23 | 0/18 |
| TLGDVTRMQSNKKNSIA | DMSNRAD | QQYHRLPLS | -0.07 / -0.34 / -0.07 / -0.37 / -0.30 / 0.30 | -0.14 | 0/18 |

In the paper, a design with two or fewer of six values counts as a poor binder. Empty control strains, which show no peptide, gave a signal in 4% of pairings with all light chain designs; the median was 2.64 and 95% of these signals were weaker than 1.59. No background was subtracted. The control count says in how many pairings with the empty strains this scFv gave a signal, with their mean in brackets. Of ten entries with the parent sequence, four were seen in most replicates (averages 0.34 to 2.37), three in one and three in none, so single entries are noisy.